Experimental data: US6716811B1, “Compounds having affinity for the granulocyte-colony stimulating factor receptor (G-CSFR) and associated uses” (Affymax, Inc., priority 2000, dated 2004)
pIC50: −log10 of the molar value.

Biological target: T1, G-CSFR (Homo sapiens, UniProt Q99062)
T1 construct: incubation with soluble G-CSFR harvest; made in house
T1 sequence (Q99062 25-627): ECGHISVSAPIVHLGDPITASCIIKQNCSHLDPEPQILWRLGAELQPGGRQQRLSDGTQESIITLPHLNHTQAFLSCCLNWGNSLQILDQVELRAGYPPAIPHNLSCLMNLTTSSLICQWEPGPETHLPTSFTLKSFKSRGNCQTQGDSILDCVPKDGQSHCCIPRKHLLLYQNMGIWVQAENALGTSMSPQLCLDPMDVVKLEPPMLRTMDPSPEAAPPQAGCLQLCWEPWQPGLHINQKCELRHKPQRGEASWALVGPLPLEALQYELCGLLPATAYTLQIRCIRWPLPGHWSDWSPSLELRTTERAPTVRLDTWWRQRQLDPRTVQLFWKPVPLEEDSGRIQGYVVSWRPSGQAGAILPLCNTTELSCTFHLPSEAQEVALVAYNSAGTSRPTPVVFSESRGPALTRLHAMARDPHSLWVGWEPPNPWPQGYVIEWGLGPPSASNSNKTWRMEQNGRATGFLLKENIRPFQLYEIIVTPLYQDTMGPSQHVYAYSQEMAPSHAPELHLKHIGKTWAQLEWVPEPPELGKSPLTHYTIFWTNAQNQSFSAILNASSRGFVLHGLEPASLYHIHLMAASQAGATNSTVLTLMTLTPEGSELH
Assay: G-CSF radioligand binding assay (SPA beads, 125I labeled G-CSF)
Conditions: reduction by 50% of 125I labeled G-CSF bound to immobilized G-CSFR; overnight at 4° C.
Protocol: Streptavidin-coated scintillation proximity assay (SPA) beads (Amersham) were mixed with biotinylated anti-receptor immobilizing antibody (Ab179) followed by incubation with soluble G-CSFR harvest. Receptor-coated SPA beads were washed twice in PBS/0.1% BSA and distributed to wells of a white polystyrene 96-well microtiter plate (Packard). Serial dilutions of peptide or peptide mimetic were mixed with a constant amount of ^125I labeled G-CSF (10^5 cpm; 1290 Ci/mmol) in PBS/0.1% BSA, added to wells containing receptor-coated SPA beads, and incubated overnight at 4° C. The binding of radiolabeled G-CSF to the receptor-coated SPA bead brings the isotope in close proximity to the scintillant, which allows the emitted radiation to stimulate the scintillant to emit light. […] The amount of ^125I labeled G-CSF that was bound at equilibrium was measured by counting the plate in a TopCount (Wallac) microtiter plate luminometer. […] One can determine the concentration at which the peptide or peptide mimetic will reduce by 50% (IC50) the amount of ^125I labeled G-CSF bound to immobilized G-CSFR.

pIC50: < 3.70
SMILES: CC(=O)N[C@@H](CO)C(=O)NCC(=O)N[C@@H](Cc1c[nH]c2ccccc12)C(=O)N[C@H](C(=O)N[C@@H](Cc1c[nH]c2ccccc12)C(N)=O)C(C)C [Example 44, Ac-SGWVW-CONH2]
